From patent publication US20150065423A1, “RAPID ACTING INJECTABLE FORMULATIONS” (Perosphere, Inc., priority 2013, published 2015)

Test: Soluble concentration of nitroglycerin measured by HPLC
Description: The resultant suspension was centrifuged and the supernatant withdrawn to become the test article. […] The results are depicted in FIG. 1.

Compound: O=[N+]([O-])OCC(CO[N+](=O)[O-])O[N+](=O)[O-] [nitroglycerin]
- nitroglycerin content (25 nitroglycerin tablets in 5 mL Humalog aqueous solution overnight, supernatant, HPLC): 1.2 mg/mL
- speed of going into solution (in presence of PEG3350 versus its absence): more quickly
